AlphaSeq binding of Ab-95 light chain variants to a spike HR2 peptide

Data: MIT Lincoln Laboratory AlphaSeq set, Engelhart et al. 2022, doi:10.1038/s41597-022-01779-4, as distributed in FLAb.

The target is the same throughout: PDVDLGDISGINAS, from the HR2 region of SARS-CoV-2 spike.

Parent scFv Ab-95: VH joined to VL by three GGGGS repeats. Changes lie in the light chain CDRs alone.
VH: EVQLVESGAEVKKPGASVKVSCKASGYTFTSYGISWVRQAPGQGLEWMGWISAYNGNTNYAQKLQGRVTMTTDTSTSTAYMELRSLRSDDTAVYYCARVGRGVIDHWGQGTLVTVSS
VL: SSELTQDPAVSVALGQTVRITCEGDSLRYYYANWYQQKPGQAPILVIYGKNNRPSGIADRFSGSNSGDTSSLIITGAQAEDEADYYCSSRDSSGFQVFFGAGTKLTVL

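Variants in AAYL52 differ from the parent at up to three CDR positions; double and triple changes were sampled at random. The assay is AlphaSeq: two haploid yeast populations carry antibody and antigen on their surface. Pairs that bind mate more often; barcode pairs of the diploids are counted by sequencing. A regression on co-assayed BCL2-family reference pairs converts the normalised counts of each replicate to an apparent Kd. Mating was done three times.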

The whole VL of each variant is written out. All variants listed here change R53 of the VL, counted from its first residue. Each Kd is an estimate from the mating assay, the geometric mean of the replicates in which the pair was seen; lower is stronger. An entry "not detected" has no value in the source: the pair was not observed among the diploids in any replicate. This suggests poor binding but is not conclusive. Three control strains display no target. For library AAYL52, 28% of the pairings with them gave a signal, with a median of 8.2 µM and one signal in twenty below 800 nM, so weak values seen in few replicates may be background. Also given: how often the same scFv was detected with the empty control strains.

VL,apparent Kd,replicates with signal,empty controls
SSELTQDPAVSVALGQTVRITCEGDSLRYYYANWYQQKPGQAPILVIYGKLNFPSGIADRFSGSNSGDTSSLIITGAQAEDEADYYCSSRDSNGFQVFFGAGTKLTVL,not detected,0 of 3,1 of 9
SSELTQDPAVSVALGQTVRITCEGDSLRYYYANWYQQKPGQAPILVIYGKNNIPSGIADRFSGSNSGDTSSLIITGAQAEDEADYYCSSRDSSGLQVPFGAGTKLTVL,3.0 µM,3 of 3,3 of 9
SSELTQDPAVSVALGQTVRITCEGDSLRYYYANWYQQKPGQAPILVIYGKNNEPSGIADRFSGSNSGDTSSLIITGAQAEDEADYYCSSRDQSGQQVFFGAGTKLTVL,1.0 µM,3 of 3,2 of 9
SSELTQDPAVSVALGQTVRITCEWDSLRYYYANWYQQKPGQAPILVIYGKNNQPSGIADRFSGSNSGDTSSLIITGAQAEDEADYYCSSRDFSGFQVFFGAGTKLTVL,56 µM,2 of 3,6 of 9
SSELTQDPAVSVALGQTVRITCEGGSLRYYYANWYQQKPGQAPILVIYGKNNFPSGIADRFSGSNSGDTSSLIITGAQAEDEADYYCSSRDSSGFQEFFGAGTKLTVL,210 nM,1 of 3,2 of 9
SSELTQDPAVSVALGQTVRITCEGDSLRYMYHNWYQQKPGQAPILVIYGKNNHPSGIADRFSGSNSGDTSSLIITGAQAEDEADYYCSSRDSSGFQVFFGAGTKLTVL,20 µM,1 of 3,1 of 9
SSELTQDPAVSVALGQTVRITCEKDSLRYYYANWYQQKPGQAPILVIYGKNNDPSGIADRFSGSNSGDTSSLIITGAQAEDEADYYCSMRDSSGFQVFFGAGTKLTVL,not detected,0 of 3,3 of 9
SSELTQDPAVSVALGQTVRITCEGDSLRYYYAVWYQQKPGQAPILVIYGKNNIPSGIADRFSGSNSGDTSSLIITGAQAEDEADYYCSSRDSSGFQVWFGAGTKLTVL,14 µM,2 of 3,3 of 9
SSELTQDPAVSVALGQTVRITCEGDSLRYYYANWYQQKPGQAPILVIYGKNNPPSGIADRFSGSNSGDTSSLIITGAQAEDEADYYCSSRESSGFQVFFGAGTKLTVL,14 µM,2 of 3,1 of 9
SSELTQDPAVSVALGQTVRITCELDSLRYYYANWYQQKPGQAPILVIYGKNNKPSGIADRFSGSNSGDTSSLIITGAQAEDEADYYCSSRDSSGFYVFFGAGTKLTVL,5.3 µM,2 of 3,3 of 9
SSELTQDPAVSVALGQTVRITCEGDSHRYYYANWYQQKPGQAPILVIYGKNNMPSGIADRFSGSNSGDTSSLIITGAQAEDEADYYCSSRQSSGFQVFFGAGTKLTVL,87 µM,1 of 3,4 of 9
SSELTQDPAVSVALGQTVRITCEGDSARYYYANWYQQKPGQAPILVIYGKNNAPSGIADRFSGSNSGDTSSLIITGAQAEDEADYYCSSRESSGFQVFFGAGTKLTVL,490 µM,1 of 3,4 of 9
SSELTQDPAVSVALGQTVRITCEGDSLRYYYANWYQQKPGQAPILVIYSKNNLPSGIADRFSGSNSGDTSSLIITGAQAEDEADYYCSSCDSSGFQVFFGAGTKLTVL,not detected,0 of 3,2 of 9
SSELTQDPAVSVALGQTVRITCEGDSLRKIYANWYQQKPGQAPILVIYGKNNYPSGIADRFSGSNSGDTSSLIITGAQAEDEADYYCSSRDSSGFQVFFGAGTKLTVL,410 nM,3 of 3,2 of 9
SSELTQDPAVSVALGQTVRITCQGDSLRYYYANWYQQKPGQAPILVIYGKNNQPSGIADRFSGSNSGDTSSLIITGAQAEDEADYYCSSRDSSPFQVFFGAGTKLTVL,not detected,0 of 3,1 of 9
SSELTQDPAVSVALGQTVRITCEGDSLRYYYARWYQQKPGQAPILVIYGKNNSPSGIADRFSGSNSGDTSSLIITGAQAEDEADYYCSSRDSEGFQVFFGAGTKLTVL,52 µM,1 of 3,2 of 9

Excerpt, the first 2 entries:

VL,apparent Kd,replicates with signal,empty controls
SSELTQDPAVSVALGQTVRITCEGDSLRYYYANWYQQKPGQAPILVIYGKLNFPSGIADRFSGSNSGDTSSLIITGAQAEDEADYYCSSRDSNGFQVFFGAGTKLTVL,not detected,0 of 3,1 of 9
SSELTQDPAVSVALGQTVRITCEGDSLRYYYANWYQQKPGQAPILVIYGKNNIPSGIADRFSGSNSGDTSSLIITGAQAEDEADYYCSSRDSSGLQVPFGAGTKLTVL,3.0 µM,3 of 3,3 of 9

Parent in this assay: reference entry 200 nM, copy in this library 180 nM.